The source of these data is EP1224299B1, “RECOMBINANT PROTEINS AND PEPTIDES FOR ENDOTOXIN BIOSENSORS, ENDOTOXIN REMOVAL, AND ANTI-MICROBIAL AND ANTI-ENDOTOXIN THERAPEUTICS” (priority 1999, dated 2001).

Marks after values point to notes of the source that are not given here.

The test system of data set [1] is Escherichia coli. As to conditions: time-kill kinetics tested on Escherichia coli; cited from earlier work.
The conditions of data set [2]: 50 ml LPS solution of 1 and 0.05 EU/ml; LAL kinetic-QCL detection limit.

Consider Buforin II, for which the Killing rate in data set [1] was 30^d min.

Take `CC[C@H](C)[C@H](NC(=O)[C@H](CCCCN)NC(=O)[C@@H](NC(=O)[C@H](CCCCN)NC(=O)[C@H](Cc1c[nH]cn1)NC(=O)[C@H](CCC(=O)O)NC(=O)[C@H](C)NC(=O)[C@@H](N)Cc1c[nH]cn1)C(C)C)C(=O)N[C@@H](CCCCN)C(=O)N[C@H](C(=O)N[C@@H](CCCCN)C(=O)N[C@@H](CCC(N)=O)C(=O)N[C@@H](CCCCN)C(=O)N[C@@H](Cc1ccc(O)cc1)C(=O)NCC(=O)N[C@@H](CCC(N)=O)C(=O)N[C@@H](Cc1ccccc1)C(=O)N1CCC[C@H]1C(=O)N[C@@H](CCC(N)=O)C(=O)NCC(=O)N[C@H](C(=O)N[C@@H](CCC(=O)O)C(=O)N[C@H](C(=O)N[C@H](C(=O)N[C@@H](Cc1ccc(O)cc1)C(=O)N[C@H](C(=O)N[C@@H](CS)C(=O)N[C@@H](CO)C(=O)NCC(=O)N[C@@H](CC(N)=O)C(=O)N[C@@H](Cc1ccc(O)cc1)C(=O)N[C@@H](Cc1ccccc1)C(=O)N[C@@H](CC(C)C)C(=O)N[C@@H](CCSC)C(=O)O)[C@@H](C)O)[C@@H](C)O)C(C)C)[C@@H](C)O)C(C)C` [S3Δ]: the “unbound LPS remaining in the flowthrough” value in data set [2] is recorded as below 0.005 EU/ml.
